Data taken from patent US11691963B2, “6-heteroaryloxy benzimidazoles and azabenzimidazoles as JAK2 inhibitors” (Ajax Therapeutics, Inc., priority 2020, dated 2023).

Chains of the proteins cited; added tags and fusions are not shown. Residues count along the entry.
UniProt O60674, 849-1124 Y1007F/Y1008F: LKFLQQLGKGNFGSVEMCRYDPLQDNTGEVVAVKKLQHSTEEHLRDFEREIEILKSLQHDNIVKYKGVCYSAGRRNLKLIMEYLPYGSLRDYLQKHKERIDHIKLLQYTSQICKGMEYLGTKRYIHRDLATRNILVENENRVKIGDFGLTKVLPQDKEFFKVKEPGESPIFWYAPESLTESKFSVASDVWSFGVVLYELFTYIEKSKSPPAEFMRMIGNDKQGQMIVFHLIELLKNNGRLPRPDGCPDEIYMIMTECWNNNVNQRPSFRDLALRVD

Target: JAK2 (JH1domain-catalytic, Y1007F,Y1008F) kinase (Homo sapiens (Human), UniProt O60674, Y1007F/Y1008F)
Conditions: read-out: JAK2 Kd; JAK2 JH1 domain-catalytic, Y1007F,Y1008F; qPCR readout

Kd, < 10 nM:
COc1c(Oc2ccnc(NC(C)=O)c2)cnc2nc(Nc3cc(C(C)(C)C)n([C@@H]4CCOC4)n3)n(C)c12 [Example I-155, (R)—N-(4-((2-((5-(tert-butyl)-1-(tetrahydrofuran-3-yl)-1H-pyrazol-3-yl)amino)-7-methoxy-1-methyl-1H-imidazo[4,5-b]pyridin-6-yl)oxy)pyridin-2-yl)acetamide]
COc1c(Oc2ccnc(NC(C)=O)c2)cnc2nc(Nc3cc(C(C)(C)C)n([C@H]4CCOC4)n3)n(C)c12 [Example I-156, (S)—N-(4-((2-((5-(tert-butyl)-1-(tetrahydrofuran-3-yl)-1H-pyrazol-3-yl)amino)-7-methoxy-1-methyl-1H-imidazo[4,5-b]pyridin-6-yl)oxy)pyridin-2-yl)acetamide]
CC(=O)Nc1cc(Oc2cnc3nc(Nc4cc(C(C)(C)C#N)n([C@@H]5CCOC5)n4)n(C)c3c2Cl)ccn1 [Example I-157, (R)—N-(4-((7-chloro-2-((5-(2-cyanopropan-2-yl)-1-(tetrahydrofuran-3-yl)-1H-pyrazol-3-yl)amino)-1-methyl-1H-imidazo[4,5-b]pyridin-6-yl)oxy)pyridin-2-yl)acetamide]
CCc1c(Oc2ccnc(NC(C)=O)c2)cnc2nc(Nc3cc(C(C)(C)C#N)n([C@@H]4CCOC4)n3)n(C)c12 [Example I-158, (R)—N-(4-((2-((5-(2-cyanopropan-2-yl)-1-(tetrahydrofuran-3-yl)-1H-pyrazol-3-yl)amino)-7-ethyl-1-methyl-1H-imidazo[4,5-b]pyridin-6-yl)oxy)pyridin-2-yl)acetamide]
CC(=O)Nc1cc(Oc2cnc3nc(Nc4cc(C(C)(C)C#N)n([C@@H]5CCOC5)n4)n(C)c3c2C(F)F)ccn1 [Example I-160, (R)—N-(4-((2-((5-(2-cyanopropan-2-yl)-1-(tetrahydrofuran-3-yl)-1H-pyrazol-3-yl)amino)-7-(difluoromethyl)-1-methyl-1H-imidazo[4,5-b]pyridin-6-yl)oxy)pyridin-2-yl)acetamide]
CC(=O)Nc1cc(Oc2cnc3nc(Nc4cc(C(C)(C)C#N)n([C@H]5CCOC5)n4)n(C)c3c2C(F)F)ccn1 [Example I-161, (S)—N-(4-((2-((5-(2-cyanopropan-2-yl)-1-(tetrahydrofuran-3-yl)-1H-pyrazol-3-yl)amino)-7-(difluoromethyl)-1-methyl-1H-imidazo[4,5-b]pyridin-6-yl)oxy)pyridin-2-yl)acetamide]
C[C@H](CO)Cn1nc(Nc2nc3ncc(Oc4ccnc(NC(=O)C5CC5)c4)cc3n2C)cc1C(C)(C)C [Example I-163-a, (S)—N-(4-((2-((5-(tert-butyl)-1-(3-hydroxy-2-methylpropyl)-1H-pyrazol-3-yl)amino)-1-methyl-1H-imidazo[4,5-b]pyridin-6-yl)oxy)pyridin-2-yl)cyclopropane-carboxamide]
C[C@@H](CO)Cn1nc(Nc2nc3ncc(Oc4ccnc(NC(=O)C5CC5)c4)cc3n2C)cc1C(C)(C)C [Example I-163-b, (R)—N-(4-((2-((5-(tert-butyl)-1-(3-hydroxy-2-methylpropyl)-1H-pyrazol-3-yl)amino)-1-methyl-1H-imidazo[4,5-b]pyridin-6-yl)oxy)pyridin-2-yl)cyclopropanecarboxamide]
Cn1c(Nc2cc(C(C)(C)C)n(C3CC4(COC4)C3)n2)nc2ncc(Oc3ccnc(NC(=O)C4CC4)c3)cc21 [Example I-164, N-(4-((2-((5-(tert-butyl)-1-(2-oxaspiro[3.3]heptan-6-yl)-1H-pyrazol-3-yl)amino)-1-methyl-1H-imidazo[4,5-b]pyridin-6-yl)oxy)pyridin-2-yl)cyclopropanecarboxamide]
COC1CN(C(=O)Nc2cc(Oc3cnc4nc(Nc5cc(C(C)(C)C)n([C@H]6CCOC6)n5)n(C)c4c3)ccn2)C1 [Example I-166, (S)—N-(4-((2-((5-(tert-butyl)-1-(tetrahydrofuran-3-yl)-1H-pyrazol-3-yl)amino)-1-methyl-1H-imidazo[4,5-b]pyridin-6-yl)oxy)pyridin-2-yl)-3-methoxyazetidine-1-carboxamide]
COc1c(Oc2ccnc(NC(C)=O)c2)cnc2nc(Nc3cc(C(C)(C)C#N)n([C@@H]4CCOC4)n3)n(C)c12 [Example I-167, (R)—N-(4-((2-((5-(2-cyanopropan-2-yl)-1-(tetrahydrofuran-3-yl)-1H-pyrazol-3-yl)amino)-7-methoxy-1-methyl-1H-imidazo[4,5-b]pyridin-6-yl)oxy)pyridin-2-yl)acetamide]
COc1c(Oc2ccnc(NC(C)=O)c2)cnc2nc(Nc3cc(C(C)(C)C#N)n([C@H]4CCOC4)n3)n(C)c12 [Example I-168, (S)—N-(4-((2-((5-(2-cyanopropan-2-yl)-1-(tetrahydrofuran-3-yl)-1H-pyrazol-3-yl)amino)-7-methoxy-1-methyl-1H-imidazo[4,5-b]pyridin-6-yl)oxy)pyridin-2-yl)acetamide]
COc1c(Oc2ccnc(NC(=O)C3CC3)c2)cnc2nc(Nc3cc(C(C)(C)C)n([C@@H]4CCOC4)n3)n(C)c12 [Example I-170, (R)—N-(4-((2-((5-(tert-butyl)-1-(tetrahydrofuran-3-yl)-1H-pyrazol-3-yl)amino)-7-methoxy-1-methyl-1H-imidazo[4,5-b]pyridin-6-yl)oxy)pyridin-2-yl)cyclopropanecarboxamide]
COc1c(Oc2ccnc(NC(=O)C3CC3)c2)cnc2nc(Nc3cc(C(C)(C)C)n([C@H]4CCOC4)n3)n(C)c12 [Example I-171, (S)—N-(4-((2-((5-(tert-butyl)-1-(tetrahydrofuran-3-yl)-1H-pyrazol-3-yl)amino)-7-methoxy-1-methyl-1H-imidazo[4,5-b]pyridin-6-yl)oxy)pyridin-2-yl)cyclopropanecarboxamide]
COc1c(Oc2ccnc(NC(=O)C3CC3)c2)cnc2nc(Nc3cc(C(F)(F)C(F)(F)F)n([C@@H]4CCOC4)n3)n(C)c12 [Example I-177, (R)—N-(4-((7-methoxy-1-methyl-2-((5-(perfluoroethyl)-1-(tetrahydrofuran-3-yl)-1H-pyrazol-3-yl)amino)-1H-imidazo[4,5-b]pyridin-6-yl)oxy)pyridin-2-yl)cyclopropanecarboxamide]
COc1c(Oc2ccnc(NC(=O)C3CC3)c2)cnc2nc(Nc3cc(C(F)(F)C(F)(F)F)n([C@H]4CCOC4)n3)n(C)c12 [Example I-178, (S)—N-(4-((7-methoxy-1-methyl-2-((5-(perfluoroethyl)-1-(tetrahydrofuran-3-yl)-1H-pyrazol-3-yl)amino)-1H-imidazo[4,5-b]pyridin-6-yl)oxy)pyridin-2-yl)cyclopropanecarboxamide]
Cn1c(Nc2cc(C(C)(C)C)n([C@H]3CCN(CCF)C3)n2)nc2ncc(Oc3ccnc(NC(=O)C4CC4)c3)cc21 [Example I-179, (S)—N-(4-((2-((5-(tert-butyl)-1-(1-(2-fluoroethyl)pyrrolidin-3-yl)-1H-pyrazol-3-yl)amino)-1-methyl-1H-imidazo[4,5-b]pyridin-6-yl)oxy)pyridin-2-yl)cyclopropanecarboxamide]
COCCN1CC[C@H](n2nc(Nc3nc4ncc(Oc5ccnc(NC(=O)C6CC6)c5)c(Cl)c4n3C)cc2C(C)(C)C)C1 [Example I-181, (S)—N-(4-((2-((5-(tert-butyl)-1-(1-(2-methoxyethyl)pyrrolidin-3-yl)-1H-pyrazol-3-yl)amino)-7-chloro-1-methyl-1H-imidazo[4,5-b]pyridin-6-yl)oxy)pyridin-2-yl)cyclopropanecarboxamide]
COc1c(Oc2ccnc(NC(=O)C3CC3)c2)cnc2nc(Nc3cc(C(C)(C)C)n([C@H]4CCN(CCF)C4)n3)n(C)c12 [Example I-183, (S)—N-(4-((2-((5-(tert-butyl)-1-(1-(2-fluoroethyl)pyrrolidin-3-yl)-1H-pyrazol-3-yl)amino)-7-methoxy-1-methyl-1H-imidazo[4,5-b]pyridin-6-yl)oxy)pyridin-2-yl)cyclopropanecarboxamide]
COc1c(Oc2ccnc(NC(=O)C3CC3)c2)cnc2nc(Nc3cc(C(C)(C)C)n([C@@H]4CCN(CCF)C4)n3)n(C)c12 [Example I-184, (R)—N-(4-((2-((5-(tert-butyl)-1-(1-(2-fluoroethyl)pyrrolidin-3-yl)-1H-pyrazol-3-yl)amino)-7-methoxy-1-methyl-1H-imidazo[4,5-b]pyridin-6-yl)oxy)pyridin-2-yl)cyclopropanecarboxamide]
CC(=O)Nc1cc(Oc2cnc3nc(Nc4cc(C(C)(C)C)n([C@H]5CCN(CCF)C5)n4)n(C)c3c2Cl)ccn1 [Example I-185, (S)—N-(4-((2-((5-(tert-butyl)-1-(1-(2-fluoroethyl)pyrrolidin-3-yl)-1H-pyrazol-3-yl)amino)-7-chloro-1-methyl-1H-imidazo[4,5-b]pyridin-6-yl)oxy)pyridin-2-yl)acetamide]
CC(=O)Nc1cc(Oc2cnc3nc(Nc4cc(C(C)(C)C)n([C@@H]5CCN(CCF)C5)n4)n(C)c3c2Cl)ccn1 [Example I-186, (R)—N-(4-((2-((5-(tert-butyl)-1-(1-(2-fluoroethyl)pyrrolidin-3-yl)-1H-pyrazol-3-yl)amino)-7-chloro-1-methyl-1H-imidazo[4,5-b]pyridin-6-yl)oxy)pyridin-2-yl)acetamide]
CC(=O)Nc1cc(Oc2cnc3nc(Nc4cc(C(C)(C)C#N)n(C5CC6(COC6)C5)n4)n(C)c3c2Cl)ccn1 [Example I-192, N-(4-((7-chloro-2-((5-(2-cyanopropan-2-yl)-1-(2-oxaspiro[3.3]heptan-6-yl)-1H-pyrazol-3-yl)amino)-1-methyl-1H-imidazo[4,5-b]pyridin-6-yl)oxy)pyridin-2-yl)acetamide]
CC(=O)Nc1cc(Oc2cnc3nc(Nc4cc(C(C)(C)C)n(C5CC6(COC6)C5)n4)n(C)c3c2Cl)ccn1 [Example I-193, N-(4-((2-((5-(tert-butyl)-1-(2-oxaspiro[3.3]heptan-6-yl)-1H-pyrazol-3-yl)amino)-7-chloro-1-methyl-1H-imidazo[4,5-b]pyridin-6-yl)oxy)pyridin-2-yl)acetamide]
